Tested on: IL-2 receptors
Experiment: Induction of IL-2 receptors of human mononuclear cells, proliferation with recombinant IL-2 (Example 18)
Format: cell-based
Conditions: Test B, control (b), 1.5 × 10^-6 units
Method: Human MNC were brought to a concentration of 10^6 cells/ml. RPMI+10% FCS. Aliquots of 0.2 ml. were placed in duplicate wells of microdishes and plates were incubated at 37° C. for 24 hrs. […] Plates were further incubated for 48 hrs. and labelled with 3H thymidine 24 hrs. before harvesting.
The proliferation was measured by ^3 HT uptake as described by Gillis et al, J. Immunol. […] The results are expressed in counts per minute.

## recombinant IL2 (human) Biogen: Cell plus recombinant IL2 (human) Biogen 1.5 × 10^-6 units
  proliferation (3HT uptake): 6858 counts per minute

Source: patent US4752614A, “Pharmaceutical compositions of tellerium and selenium compounds for the induction of in vivo and in vitro production of cytokines” (Bar-Ilan University, priority 1987, dated 1988)
